The list shows a part of the results, in another mix than the full data. Activity calls are given as the source filed them. Rule as the data show it: active = activation above about 23%; inactive = the rest.
target: Peroxisome proliferator-activated receptor gamma (Homo sapiens) (UniProt P37231); test: enhancers of SRC-3 binding to PPARgamma – biochemical, primary screen (AID 731); details: biochemical PPARgamma/SRC-3 coactivator recruitment assay; at 8 µM; stronger effect = higher value;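 also: 0% = DMSO and 100% = reference agonist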

Chains of the proteins cited; added tags and fusions are not shown. Residues count along the entry.
UniProt P37231, 232-505 limits assumed: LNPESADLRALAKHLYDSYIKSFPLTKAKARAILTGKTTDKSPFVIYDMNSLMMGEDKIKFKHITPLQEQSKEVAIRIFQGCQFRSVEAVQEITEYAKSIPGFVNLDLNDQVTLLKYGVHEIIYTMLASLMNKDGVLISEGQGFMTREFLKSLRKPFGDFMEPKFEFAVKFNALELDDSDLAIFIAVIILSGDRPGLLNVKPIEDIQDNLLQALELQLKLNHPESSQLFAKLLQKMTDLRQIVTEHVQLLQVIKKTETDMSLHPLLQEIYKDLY
UniProt Q9Y6Q9, whole entry partner: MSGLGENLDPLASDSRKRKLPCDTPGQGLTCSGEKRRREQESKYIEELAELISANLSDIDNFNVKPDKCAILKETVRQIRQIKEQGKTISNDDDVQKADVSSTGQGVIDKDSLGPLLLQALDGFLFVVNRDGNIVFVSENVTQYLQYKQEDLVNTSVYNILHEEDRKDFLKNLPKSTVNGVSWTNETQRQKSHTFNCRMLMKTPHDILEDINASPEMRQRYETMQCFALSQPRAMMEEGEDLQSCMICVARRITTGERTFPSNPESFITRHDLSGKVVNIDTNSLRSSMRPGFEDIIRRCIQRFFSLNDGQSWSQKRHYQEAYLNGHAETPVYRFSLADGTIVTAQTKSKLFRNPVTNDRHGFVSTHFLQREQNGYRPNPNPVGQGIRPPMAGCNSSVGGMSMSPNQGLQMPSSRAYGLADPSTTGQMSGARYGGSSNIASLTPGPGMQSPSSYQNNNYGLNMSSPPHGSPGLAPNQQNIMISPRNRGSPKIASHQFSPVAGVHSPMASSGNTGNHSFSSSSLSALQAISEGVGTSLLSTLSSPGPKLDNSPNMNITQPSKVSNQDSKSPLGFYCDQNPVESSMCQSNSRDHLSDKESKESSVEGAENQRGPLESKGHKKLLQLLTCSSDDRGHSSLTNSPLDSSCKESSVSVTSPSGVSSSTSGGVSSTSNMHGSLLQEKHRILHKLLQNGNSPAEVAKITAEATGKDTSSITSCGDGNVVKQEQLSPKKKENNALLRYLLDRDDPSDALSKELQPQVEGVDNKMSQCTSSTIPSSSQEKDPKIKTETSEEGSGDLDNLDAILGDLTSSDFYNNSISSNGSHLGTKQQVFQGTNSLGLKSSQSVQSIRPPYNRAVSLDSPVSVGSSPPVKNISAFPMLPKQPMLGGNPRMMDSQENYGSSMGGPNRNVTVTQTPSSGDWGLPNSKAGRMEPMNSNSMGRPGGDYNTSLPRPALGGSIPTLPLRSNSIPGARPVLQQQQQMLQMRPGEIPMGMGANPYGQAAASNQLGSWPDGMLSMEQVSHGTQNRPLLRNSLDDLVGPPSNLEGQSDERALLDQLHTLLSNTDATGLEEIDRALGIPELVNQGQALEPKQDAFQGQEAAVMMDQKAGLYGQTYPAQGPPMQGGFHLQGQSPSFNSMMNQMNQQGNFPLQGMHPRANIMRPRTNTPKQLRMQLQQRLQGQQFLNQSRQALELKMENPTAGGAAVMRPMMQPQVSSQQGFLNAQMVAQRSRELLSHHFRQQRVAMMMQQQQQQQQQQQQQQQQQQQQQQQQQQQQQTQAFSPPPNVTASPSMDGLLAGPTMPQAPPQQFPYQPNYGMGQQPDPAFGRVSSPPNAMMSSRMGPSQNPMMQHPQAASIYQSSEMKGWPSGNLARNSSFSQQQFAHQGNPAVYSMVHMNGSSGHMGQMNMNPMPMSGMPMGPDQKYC

Structure (SMILES)	activation
COc1ccc(NC2CCN(CCc3ccccc3)CC2)c(OC)c1	inactive: 4.07%
O=C(NCC1(N2CCOCC2)CCCCC1)c1cc2ccccc2o1	inactive: 2.62%
O=C(OC1CN2CCC1CC2)C1c2ccccc2Oc2ccccc21 (stereo not given)	inactive: -3.47%
CCOC(=O)N1CCC(Nc2ccc(OC)cc2)CC1	inactive: 0.87%
COc1ccc(C(=O)NCC2(N3CCCCC3)CCCCC2)c(OC)c1OC	inactive: -0.95%
CN1CCC(Nc2cccc(F)c2)CC1	inactive: 5.74%
CC(C)c1ccc(NC2CCN(C(=O)OC(C)(C)C)CC2)cc1	inactive: -4.22%
CN(C)c1cccc(C(=O)NCC2(N3CCCCC3)CCCCC2)c1	inactive: 0.66%
COc1ccc(CN(CCCl)CCCl)cc1Cl	inactive: -2.7%
O=C(NCC1(N2CCOCC2)CCCCC1)c1cc(=O)[nH]c2ccccc12	inactive: -10.8%
CN1CCN(CCOC(=O)C(O)(c2ccccc2)c2ccccc2)CC1	inactive: -1.89%
COc1ccc(NC2CCN(C(=O)OC(C)(C)C)CC2)cc1	inactive: -2.57%
N#CC1(Nc2ccccc2)CCN(CCc2ccccc2)CC1	inactive: 4.74%
O=C(NCC1(N2CCCCC2)CCCCC1)c1cccc([N+](=O)[O-])c1	inactive: -4.07%
c1ccc(CN2CCC(Nc3ccccc3)CC2)cc1	inactive: -8.95%
N#Cc1ccc(C(=O)NCC2(N3CCCCC3)CCCCC2)cc1	inactive: 0.02%
N/C(=N\O)c1c(N)no[n+]1[O-]	inactive: 8.49%
O=C(OC1CN2CCC1CC2)C1c2ccccc2C=Cc2ccccc21 (stereo not given)	inactive: -0.6%
COc1ccc(C(=O)NCC2(N3CCOCC3)CCCCC2)cc1OC	inactive: -2.45%
COc1cc(OC)cc(C(=O)NCC2(N3CCOCC3)CCCCC2)c1	inactive: 4.49%
CCC(CO)(C(=O)OC1CN2CCC1CC2)c1ccccc1 (stereo not given)	inactive: -1.49%
CCOc1ncccc1C(=O)NCC1(N2CCOCC2)CCCCC1	inactive: 9.43%
CC(C)(C)OC(=O)N1CCC(Nc2ccccc2)CC1	inactive: 5.3%
CCN1CCC(Nc2cccc(F)c2)CC1	inactive: 4.11%
CN(C)c1ccc(C(=O)NCC2(N3CCCCC3)CCCCC2)cc1	inactive: 9.17%

Source: PubChem BioAssay AID731 (The Scripps Research Institute Molecular Screening Center, 2007)
